## Apparent affinities of Ab-91 variants for a coronavirus HR2 peptide

Values reported by Engelhart et al. 2022, doi:10.1038/s41597-022-01779-4 (FLAb copy).

Target: peptide PDVDLGDISGINAS, taken from heptad repeat 2 (HR2) of SARS-CoV-2 spike.

Parent: Ab-91, a human scFv built as VL, a 15-residue (Gly4Ser)3 linker, VH. Only the CDRs of the heavy chain vary.
VL: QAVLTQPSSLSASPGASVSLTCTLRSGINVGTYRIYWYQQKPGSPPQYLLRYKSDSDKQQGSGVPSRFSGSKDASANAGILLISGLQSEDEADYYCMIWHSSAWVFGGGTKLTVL
VH: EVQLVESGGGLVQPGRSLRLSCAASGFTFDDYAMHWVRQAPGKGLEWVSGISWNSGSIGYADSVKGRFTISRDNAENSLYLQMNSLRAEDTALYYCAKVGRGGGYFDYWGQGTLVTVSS

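The library (AAYL51) carries one to three amino acid substitutions per variant, with no insertions or deletions. In AlphaSeq, yeast of one mating type display the scFv and yeast of the other type display the target. Binding brings cells together so that they mate, and sequencing counts the barcode pairs among the diploids. Read counts were normalised to the haploid input and turned into Kd by a linear fit to BCL2-family pairs of known affinity, for each replicate. Each pool was mated in three replicate cultures.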

Changes read parent residue, position, new residue, counted from the first residue of the VH shown. Every variant below is changed at I58 of the VH (sequential numbering). Kd is apparent (estimated from mating counts) and averaged on the log scale over replicates with a signal. Smaller is tighter. Where no diploid with the target was found in any replicate, the entry reads "nd": below detection, most likely a poor binder, though not proof of it.

With Y32G S57C I58S the result was 18 µM (1 of 3 replicates; controls 5 of 9).
With I58K S63Y G100A the result was 12 µM (3 of 3 replicates; controls 4 of 9).
With I58Y G102W the result was 96 µM (3 of 3 replicates; controls 6 of 9).
With S52Y I58L S63Y the result was 43 µM (3 of 3 replicates; controls 1 of 9).
With T28G I58H G104Y the result was nd (0 of 3 replicates; controls 1 of 9).
With T28V I58E the result was 3.0 nM (3 of 3 replicates; controls 0 of 9).
With D30S H35P I58W the result was 16 µM (1 of 3 replicates; controls 3 of 9).
With A33T I58V G102H the result was nd (0 of 3 replicates; controls 1 of 9).
With F29M Y32L I58L the result was 2.0 µM (1 of 3 replicates; controls 0 of 9).
With S52E S55Y I58T the result was 9.2 µM (1 of 3 replicates; controls 4 of 9).
With T28H F29T I58D the result was 18 µM (3 of 3 replicates; controls 1 of 9).
With I58H the result was 26 µM (1 of 3 replicates; controls 1 of 9).
With I58V K65G the result was nd (0 of 3 replicates; controls 1 of 9).
With Y32Q W53Q I58E the result was 6.9 µM (1 of 3 replicates; controls 0 of 9).
With I51Y N54L I58D the result was 90 µM (2 of 3 replicates; controls 3 of 9).
With Y32S H35L I58F the result was 200 µM (2 of 3 replicates; controls 5 of 9).
With H35N I58Y R101K the result was nd (0 of 3 replicates; controls 3 of 9).
With I58F V64W the result was nd (0 of 3 replicates; controls 1 of 9).
With Y32Q I51E I58T the result was 49 µM (3 of 3 replicates; controls 6 of 9).
With W53A I58Y G103K the result was 57 nM (3 of 3 replicates; controls 2 of 9).
With T28W G56I I58D the result was 140 nM (3 of 3 replicates; controls 1 of 9).
With N54Y G56P I58F the result was 75 µM (1 of 3 replicates; controls 3 of 9).
With G50I I58F G102Q the result was 270 µM (3 of 3 replicates; controls 4 of 9).
With G26Y D31E I58T the result was 15 nM (1 of 3 replicates; controls 1 of 9).
With F29D I58N Y60W the result was nd (0 of 3 replicates; controls 1 of 9).
With D30M I58L F106H the result was nd (0 of 3 replicates; controls 0 of 9).
With D31S N54S I58S the result was nd (0 of 3 replicates; controls 1 of 9).
With I58C K65I the result was 22 nM (3 of 3 replicates; controls 2 of 9).
With I58L S63L F106A the result was 7.4 µM (1 of 3 replicates; controls 0 of 9).
With I58C K65C the result was 640 nM (3 of 3 replicates; controls 1 of 9).
With I58V G100S D107T the result was nd (0 of 3 replicates; controls 2 of 9).
With Y32R I58S A61L the result was nd (0 of 3 replicates; controls 0 of 9).
With H35P I58K A61H the result was 50 µM (2 of 3 replicates; controls 4 of 9).
With G26H F29W I58P the result was nd (0 of 3 replicates; controls 0 of 9).
With I58R R101T D107L the result was 6.6 nM (3 of 3 replicates; controls 6 of 9).
With W53R I58P A61R the result was 23 µM (1 of 3 replicates; controls 3 of 9).
With I58S A61S S63V the result was 12 nM (3 of 3 replicates; controls 4 of 9).
With G50N I58M G102R the result was 48 µM (1 of 3 replicates; controls 0 of 9).
With I58P Y60H G102N the result was 28 µM (1 of 3 replicates; controls 3 of 9).
With I58F G102A the result was 310 nM (3 of 3 replicates; controls 1 of 9).
With Y32R I58P G104K the result was nd (0 of 3 replicates; controls 1 of 9).
With S52R S57V I58F the result was nd (0 of 3 replicates; controls 1 of 9).
With S55C I58E D62K the result was nd (0 of 3 replicates; controls 0 of 9).
With T28W I58H the result was 170 nM (3 of 3 replicates; controls 1 of 9).
With T28M I58E G100M the result was 2.6 µM (3 of 3 replicates; controls 4 of 9).
With G50Q W53V I58T the result was nd (0 of 3 replicates; controls 2 of 9).
With I58T V64W G102A the result was 120 µM (3 of 3 replicates; controls 6 of 9).
With I58H G103M the result was nd (0 of 3 replicates; controls 0 of 9).
With I58E the result was 150 nM (3 of 3 replicates; controls 5 of 9).
With W53H I58W G103H the result was nd (0 of 3 replicates; controls 3 of 9).
With I58S V99Q the result was 220 µM (1 of 3 replicates; controls 3 of 9).
With W53P I58T V64N the result was 2.1 nM (3 of 3 replicates; controls 1 of 9).

4 of these entries, quoted again:

For W53R I58P A61R, the assay gave 23 µM (1 of 3 replicates; controls 3 of 9).
For I58V G100S D107T, the assay gave nd (0 of 3 replicates; controls 2 of 9).
For I58L S63L F106A, the assay gave 7.4 µM (1 of 3 replicates; controls 0 of 9).
For Y32R I58P G104K, the assay gave nd (0 of 3 replicates; controls 1 of 9).

Background: pairings of library AAYL51 with three empty control strains gave a value in 21% of cases (median 34 µM, 5th percentile 1.8 µM). Values in that range, when seen in few replicates, are hard to tell from nonspecific mating. For each scFv, signals with the empty controls are counted beside the result. Parent in this assay: reference entry 72 nM, copy in this library 7.5 nM.